Molecular target: T1, PBP from Clostridium difficile (Clostridioides difficile, UniProt Q189X7)
T1 sequence (Q189X7 1-897): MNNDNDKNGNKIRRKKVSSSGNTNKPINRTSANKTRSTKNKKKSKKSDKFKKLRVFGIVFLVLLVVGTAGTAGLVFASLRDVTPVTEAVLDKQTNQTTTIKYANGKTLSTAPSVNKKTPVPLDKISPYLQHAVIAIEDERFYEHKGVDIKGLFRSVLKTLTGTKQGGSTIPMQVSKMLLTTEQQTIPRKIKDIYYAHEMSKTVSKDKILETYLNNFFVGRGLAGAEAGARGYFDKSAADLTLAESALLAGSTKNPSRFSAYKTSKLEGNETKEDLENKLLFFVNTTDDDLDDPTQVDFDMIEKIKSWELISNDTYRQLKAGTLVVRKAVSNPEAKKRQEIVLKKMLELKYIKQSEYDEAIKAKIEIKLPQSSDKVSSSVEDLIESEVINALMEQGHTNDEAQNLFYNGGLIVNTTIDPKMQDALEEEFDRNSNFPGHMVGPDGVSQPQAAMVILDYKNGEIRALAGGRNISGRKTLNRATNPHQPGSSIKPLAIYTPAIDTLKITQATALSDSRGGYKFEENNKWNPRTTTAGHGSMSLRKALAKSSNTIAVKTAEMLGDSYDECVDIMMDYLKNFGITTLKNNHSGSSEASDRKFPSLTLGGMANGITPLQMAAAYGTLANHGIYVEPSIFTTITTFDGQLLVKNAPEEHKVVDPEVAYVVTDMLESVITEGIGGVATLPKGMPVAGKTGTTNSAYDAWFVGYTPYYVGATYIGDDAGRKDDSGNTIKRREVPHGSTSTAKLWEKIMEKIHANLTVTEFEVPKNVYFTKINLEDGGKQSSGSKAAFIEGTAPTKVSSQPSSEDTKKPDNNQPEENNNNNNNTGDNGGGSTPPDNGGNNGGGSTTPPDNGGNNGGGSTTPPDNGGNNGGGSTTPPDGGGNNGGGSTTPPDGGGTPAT
Assay: SPR moenomycin binding to immobilized full-length PBP
Conditions: read-out: SPR_KD, steady-state affinity, average values

## Moenomycin A [Compound 1]
  Kd: 582 nM

— patent publication US8916540B2, “Antibiotic compositions and related screening methods” (Academia Sinica, priority 2008, dated 2014)
